In PubChem BioAssay AID1136 (Sanford-Burnham Center for Chemical Genomics, 2008) one finds activation factor data, which are given here for 76 compounds.

Protein sequences, listed by entry. Tags and fused reporters are not part of them.
UniProt P05186, whole entry: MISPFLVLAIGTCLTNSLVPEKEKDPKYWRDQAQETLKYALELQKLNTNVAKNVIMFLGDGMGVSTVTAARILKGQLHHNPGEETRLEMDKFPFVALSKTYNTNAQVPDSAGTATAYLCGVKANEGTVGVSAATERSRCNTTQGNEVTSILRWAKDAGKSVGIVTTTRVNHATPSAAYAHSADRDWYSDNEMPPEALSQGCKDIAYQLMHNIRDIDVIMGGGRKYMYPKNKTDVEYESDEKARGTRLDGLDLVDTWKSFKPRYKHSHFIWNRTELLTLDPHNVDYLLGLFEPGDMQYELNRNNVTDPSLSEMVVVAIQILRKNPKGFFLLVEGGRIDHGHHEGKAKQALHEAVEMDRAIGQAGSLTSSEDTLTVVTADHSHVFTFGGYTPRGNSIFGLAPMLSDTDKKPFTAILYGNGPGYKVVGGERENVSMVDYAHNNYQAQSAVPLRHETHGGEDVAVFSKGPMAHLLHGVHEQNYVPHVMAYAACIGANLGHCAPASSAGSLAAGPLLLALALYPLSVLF

This is one part of the list. Activity calls are given as the source filed them.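 Rule for the calls: active = activation factor at least 2 at 20 µM; inactive = the rest.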

This assay addresses Alkaline phosphatase, tissue-nonspecific isozyme (Homo sapiens) (UniProt P05186). Put plainly: activation of human TNAP, high DEA acceptor – biochemical, luminescence, uHTS, primary screen (AID 1136). The note with it: purified TNAP, CDP-star luminescence, 1 M DEA, 30 min, at 20 µM; stronger effect = higher value, 0 = EDTA background, 1 = DMSO-only activity.
On to `Cc1cc(SC(NC(=O)c2ccccc2)C(Cl)(Cl)Cl)nc(C(C)C)n1` (stereo unspecified), for which the activation factor entry is “inactive”.
With `CP(=S)(Nn1cnnc1)Oc1ccccc1` (stereo unspecified) the entry was “inactive”; with `CP(=O)(Nc1ccccc1Br)Oc1ccccc1` (stereo unspecified), “inactive”; with `O=P(Nc1ccccn1)(c1cccc2ccccc12)c1cccc2ccccc12`, “inactive”.
With `Cc1cc(SC(NC=O)C(Cl)(Cl)Cl)ncn1` (stereo unspecified) the entry was “inactive”; with `COc1ccccc1OP(C)(=O)Nc1ccccc1` (stereo unspecified), inactive: 1.1; with `Cc1cccc(C)c1OP(C)(=O)Nc1ccc(SC(F)(F)F)cc1` (stereo unspecified), “inactive”.
As for `CP(=O)(Oc1ccccc1)OC(c1ccccc1)C(F)(F)F` (stereo unspecified), the activation factor result was “inactive”.
As to `O=C(COc1ccccc1)OC1CN2CCC1CC2` (stereo unspecified), the activation factor result was “inactive”.
Take `CP(=O)(NC(=O)Nc1ccccc1)Oc1ccccc1` (stereo unspecified): the activation factor was inactive: 1.1.
In the case of `Cc1cc(C)cc(OP(C)(=O)Nc2ccc(SC(F)(F)F)cc2)c1` (stereo unspecified), the activation factor result was “inactive”.
Turning to `CCOC(=O)c1ccc(NP(C)(=O)Oc2ccc(OC)cc2)cc1` (stereo unspecified), the activation factor entry was “inactive”.
Regarding `CCOP(C)(=S)SCC(=O)NC(C)C(=O)O` (stereo unspecified), the activation factor result is “inactive”.
With `CP(=O)(Nc1ccccn1)Oc1ccc(Cl)cc1` (stereo unspecified) the entry was “inactive”; with `Cc1cc(=O)[nH]c(N[N+](=O)[O-])n1`, “inactive”; with `CCN(CC)CCCOC(=O)C(O)(c1ccccc1)c1ccccc1`, “inactive”.
Take `Cc1c2c(nc3ccccc13)SC(C(Cl)Cl)C2` (stereo unspecified): the activation factor entry was “inactive”.
With `COc1ccc(N/C(=N/P(=O)(N2CCOCC2)N2CCOCC2)N2CCOCC2)cc1` the entry was “inactive”.
Turning to `O=[N+]([O-])c1ccc2c(c1)C=Nc1ccccc1O2`, the activation factor is inactive: 0.8.
With `Cc1ccc2nc3c(c(C)c2c1)CC(C(Cl)Cl)S3` (stereo unspecified) the entry was “inactive”; with `CC(C)(C)c1ccc(OP(C)(=O)Nc2ccc(SC(F)(F)F)cc2)cc1` (stereo unspecified), “inactive”; with `Cc1cccc(C)c1OP(C)(N)=O` (stereo unspecified), “inactive”.
With `COc1ccccc1OP(C)(=O)Nc1ccc(C)cc1` (stereo unspecified) the entry was “inactive”; with `Cc1ccc(NP(C)(=O)Oc2ccccc2)c(C)c1` (stereo unspecified), “inactive”.
Take `CCOC(=O)c1ccc(NP(C)(=O)Oc2ccccc2)cc1` (stereo unspecified): the activation factor entry is “inactive”.
With `ClCCSc1nnc(-c2cccnc2)o1` the entry was “inactive”; with `Cc1cc(C)cc(OP(C)(N)=O)c1` (stereo unspecified), inactive: 1.1.
For `COc1ccccc1OP(C)(=O)Nc1cc(Cl)ccc1C` (stereo unspecified), the activation factor result was “inactive”.
With `CC(C)NC(=O)NP(=O)(Oc1ccccc1)Oc1ccccc1` the entry was “inactive”.
Regarding `CCN(CC)C(=S)SC(NC=O)C(Cl)(Cl)Cl` (stereo unspecified), the activation factor result is “inactive”.
As for `COc1ccc(OP(C)(=O)Nc2cccc(F)c2)cc1` (stereo unspecified), the activation factor entry was “inactive”.
In the case of `O=P(Nc1nccs1)(Oc1ccccc1)Oc1ccccc1`, the activation factor result is “inactive”.
With `O=P(Nc1nccs1)(c1ccccc1)c1nc2ccccc2s1` (stereo unspecified) the entry was “inactive”; with `CC1=NCCc2c1[nH]c1ccccc21.O=[N+]([O-])c1cc([N+](=O)[O-])c(O)c([N+](=O)[O-])c1`, inactive: 0.9; with `CCOP1(=S)c2c(C)nn(CCC#N)c2N=C(c2ccc(F)cc2)N1C` (stereo unspecified), “inactive”.
With `COc1cc(C(=O)NCC2(N3CCOCC3)CCCCC2)cc(Cl)c1OC(C)C` the entry was “inactive”; with `CCOC(=O)c1ccc(NP(C)(=O)Oc2cc(C)cc(C)c2)cc1` (stereo unspecified), “inactive”.
With `Cc1cccc(OCC(=O)OC2CN3CCC2CC3)c1` (stereo unspecified) the entry was “inactive”.
Take `Cc1cc(C)cc(OP(C)(=O)Nc2ccc(C)cc2C)c1` (stereo unspecified): the activation factor result is “inactive”.
`Cc1ccc(C)c(NP(C)(=O)Oc2ccccc2)c1` (stereo unspecified): the activation factor entry is “inactive”.
With `Cc1cc(C)cc(OP(C)(=O)Nc2ccccn2)c1` (stereo unspecified) the entry was “inactive”; with `CP(=O)(Nc1cccc(Br)c1)Oc1ccccc1` (stereo unspecified), “inactive”.
As to `CCOP(=O)(Nc1cccc2ccccc12)OCC`, the activation factor result is “inactive”.
With `O=P1(Nc2ccccn2)COc2ccccc2OC1`, the activation factor result was “inactive”.
With `O=[N+]([O-])c1cc([N+](=O)[O-])c(-n2nnc3ccccc32)c([N+](=O)[O-])c1` the entry was “inactive”.
As for `Clc1n[nH]nc1-c1nn[nH][15n]1`, the activation factor entry is “inactive”.
With `Cc1nc2ccc3ccccc3c2s1.O=[N+]([O-])c1cc([N+](=O)[O-])c(O)c([N+](=O)[O-])c1` the entry was “inactive”.
For `CC(C)/C=N\N=C(\N)N[N+](=O)[O-]`, the activation factor result is “inactive”.
On to `COc1cc(C2NCCC3(OCCO3)C2(C)C)cc(OC)c1OC.O=[N+]([O-])c1cc([N+](=O)[O-])c(O)c([N+](=O)[O-])c1` (stereo unspecified), for which the activation factor entry was “inactive”.
Consider `Cc1nn(-c2ccccc2)c2c1P(=O)(N1CCOCC1)N(C)C(c1ccccc1)=N2` (stereo unspecified), for which the activation factor result is “inactive”.
With `COc1ccccc1OP(C)(=O)Nc1c(C)cccc1C` (stereo unspecified) the entry was “inactive”; with `CN1CCCCC1COC(=O)C1(O)c2ccccc2CCc2ccccc21` (stereo unspecified), “inactive”; with `O=P1(Nc2ncccn2)COc2ccccc2OC1`, “inactive”.
Take `Cc1ccc(OCC(=O)OC2CN3CCC2CC3)cc1` (stereo unspecified): the activation factor entry is “inactive”.
With `CCCOc1ccc(NP(C)(=O)Oc2ccc(Cl)cc2)cc1` (stereo unspecified) the entry was “inactive”.
`CP(=O)(Nc1ccc(SC(F)(F)F)cc1)Oc1ccccc1` (stereo unspecified): the activation factor entry is “inactive”.
Turning to `COc1ccc(OP(C)(=O)Nc2cccc(Br)c2)cc1` (stereo unspecified), the activation factor was inactive: 1.1.
With `O=P(Nc1ccccn1)(c1ccc(Br)cc1)c1ccc(Br)cc1` the entry was “inactive”.
On to `CN(C)CCOC(=O)C(O)(c1ccccc1)C1CCCCC1` (stereo unspecified), for which the activation factor result is “inactive”.
With `COc1ccc(NP(C)(=O)Oc2ccccc2OC)cc1` (stereo unspecified) the entry was “inactive”; with `CC(=O)NC(SC(=S)N(C)C)C(Cl)(Cl)Cl` (stereo unspecified), “inactive”.
Consider `O=[N+]([O-])c1cc([N+](=O)[O-])c(NCC2CCS(=O)(=O)C2)c([N+](=O)[O-])c1` (stereo unspecified), for which the activation factor is inactive: 0.9.
For the compound `O=C(OC1CN2CCC1CC2)c1cccc(Cl)c1` (stereo unspecified), the activation factor result was “inactive”.
With `CC(C)C(=O)NC(Sc1ccccc1)C(Cl)(Cl)Cl` (stereo unspecified), the activation factor result was “inactive”.
For the compound `O=P(Nc1nccs1)(c1ccccc1)c1ccccc1`, the activation factor entry was “inactive”.
For `CCOP(C)(=S)SCC(=O)NC(C)(CC)C(=O)O` (stereo unspecified), the activation factor entry is “inactive”.
With `c1nnnn1CCn1cnnn1` the entry was “inactive”; with `CP(=O)(Nc1ccc2c(c1)OCCO2)Oc1ccccc1` (stereo unspecified), “inactive”.
`Cc1ccccc1NP(C)(=O)Nc1ccccc1C`: the activation factor entry was “inactive”.
With `O=P1(Nc2nc3ccc(Cl)cc3s2)COc2ccccc2O1` (stereo unspecified) the entry was “inactive”; with `CCOc1ccc(C2=NCC(CBr)S2)cc1` (stereo unspecified), “inactive”.
With `CP(=O)(Nc1ccccc1F)Oc1ccccc1` (stereo unspecified) the figure was inactive: 1.1; with `CC(C)(C)C(=O)NC(Sc1ccccc1)C(Cl)(Cl)Cl` (stereo unspecified), “inactive”; with `CC(C)c1ccc(OP(C)(=O)Nc2ccc(SC(F)(F)F)cc2)cc1` (stereo unspecified), “inactive”.
With `O=C(OCCN1CCN(CCOCc2ccccc2)CC1)C(O)(c1ccccc1)c1ccccc1`, the activation factor result is “inactive”.
Turning to `CC(=O)Nc1ccc(Oc2c([N+](=O)[O-])cc([N+](=O)[O-])cc2[N+](=O)[O-])cc1`, the activation factor entry was “inactive”.
